Data: article PMC8887546, “Design and Synthesis of Brain Penetrant Glycopeptide Analogues of PACAP With Neuroprotective Potential for Traumatic Brain Injury and Parkinsonism” (Frontiers in drug discovery, 2022)

Chains of the proteins cited; added tags and fusions are not shown. Residues count along the entry.
UniProt P32241, 31-457: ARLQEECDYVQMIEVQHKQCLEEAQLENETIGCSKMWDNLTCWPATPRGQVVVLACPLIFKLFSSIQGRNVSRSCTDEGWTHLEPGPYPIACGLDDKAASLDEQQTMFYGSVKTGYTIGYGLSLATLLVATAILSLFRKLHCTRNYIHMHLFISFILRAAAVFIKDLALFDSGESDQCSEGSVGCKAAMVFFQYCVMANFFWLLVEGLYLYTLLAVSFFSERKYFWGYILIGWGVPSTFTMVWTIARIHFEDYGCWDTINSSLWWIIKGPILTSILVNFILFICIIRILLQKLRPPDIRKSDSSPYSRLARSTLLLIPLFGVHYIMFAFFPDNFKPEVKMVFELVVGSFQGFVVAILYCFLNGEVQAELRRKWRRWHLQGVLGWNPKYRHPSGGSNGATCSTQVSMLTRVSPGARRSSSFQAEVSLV

Key:
Type in all cases: cell-based
[1] = target: T1, human VPAC1 receptor (Homo sapiens, UniProt P32241); experiment: cAMP stimulation in CHO cells expressing VPAC1; conditions: for Emax: CHO; for Receptor selectivity ratio VPAC1/PAC1: ratio of cAMP EC50 values
T1 construct: expressed in transfected cells; host or cells: CHO cells (G418 selection)

[2] = target: T2, human PAC1 receptor (Homo sapiens, UniProt P41586); experiment: cAMP stimulation in CHO cells expressing PAC1; conditions: for Emax: CHO
T2 construct: expressed in transfected cells; host or cells: CHO cells (G418 selection)
T2 sequence (P41586 21-468): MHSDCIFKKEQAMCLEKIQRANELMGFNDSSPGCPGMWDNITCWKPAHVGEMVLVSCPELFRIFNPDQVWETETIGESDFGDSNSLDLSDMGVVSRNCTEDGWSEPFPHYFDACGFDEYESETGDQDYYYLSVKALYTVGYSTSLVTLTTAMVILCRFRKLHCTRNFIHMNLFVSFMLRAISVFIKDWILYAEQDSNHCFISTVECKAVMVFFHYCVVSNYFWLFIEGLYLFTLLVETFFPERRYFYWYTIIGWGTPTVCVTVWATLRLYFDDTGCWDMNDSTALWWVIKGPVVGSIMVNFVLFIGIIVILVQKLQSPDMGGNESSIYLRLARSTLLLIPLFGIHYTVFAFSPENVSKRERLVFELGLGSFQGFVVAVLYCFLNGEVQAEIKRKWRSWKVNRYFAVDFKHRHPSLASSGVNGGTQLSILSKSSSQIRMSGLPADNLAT
Protocol: (§1) Briefly, human PAC1, VPAC1, and VPAC2 receptors expressed in CHO cells were used for all experiments. Cells were grown in 50:50 DMEM-F12 medium with 10% heat-inactivated fetal bovine serum, 1X penicillin-streptomycin supplement, and 500 μg/ml G418 (neomycin) to maintain selection (all from ThermoFisher) at 37°C with 5% CO2 atmosphere. For the cAMP assay, cells were seeded at 20,000 cells/well in a 96 well plate, recovered overnight, then serum starved for 4 h. The cells were then incubated with 500 μM IBMX for 20 min, followed by agonist concentration curves in 500 μM IBMX media for 10 min. The reaction was terminated, boiled, then collected, followed by competition with 7 μg of bovine protein kinase A (Sigma-Aldrich) and ∼1 pmol of ^3H-cAMP (PerkinElmer). The assay was incubated at room temp for 1 h, then collected onto GF/B filter plates and the data read using a MicroBeta2 scintillation counter (PerkinElmer).

[3] = target: T3, human VPAC2 receptor (Homo sapiens, UniProt P41587); experiment: cAMP stimulation in CHO cells expressing VPAC2; conditions: for Emax: CHO; for Receptor selectivity ratio VPAC2/PAC1 / Receptor selectivity ratio VPAC2/VPAC1: ratio of cAMP EC50 values
T3 construct: expressed in transfected cells; host or cells: CHO cells (G418 selection)
T3 sequence (P41587 24-438): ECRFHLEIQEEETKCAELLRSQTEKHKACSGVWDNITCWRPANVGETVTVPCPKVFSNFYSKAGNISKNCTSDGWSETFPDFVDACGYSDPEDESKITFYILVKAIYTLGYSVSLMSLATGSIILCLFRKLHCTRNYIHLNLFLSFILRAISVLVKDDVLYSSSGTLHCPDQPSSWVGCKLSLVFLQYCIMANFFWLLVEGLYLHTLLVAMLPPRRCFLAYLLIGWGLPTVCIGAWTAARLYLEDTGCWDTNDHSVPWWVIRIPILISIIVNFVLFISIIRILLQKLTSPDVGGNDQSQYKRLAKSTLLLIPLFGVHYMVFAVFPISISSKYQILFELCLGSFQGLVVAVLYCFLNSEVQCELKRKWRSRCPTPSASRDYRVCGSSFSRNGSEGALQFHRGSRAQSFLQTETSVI
Protocol: as §1

Row | Compound | Emax [1] [%] | EC50 [2] [nM] | Emax [2] [%] | EC50 [3] [nM] | Emax [3] [%] | Receptor selectivity ratio VPAC2/PAC1 [3] | Receptor selectivity ratio VPAC2/VPAC1 [3] | EC50 [1] [nM] | Receptor selectivity ratio VPAC1/PAC1 [1]
1 | CCC[C@H](NC(=O)[C@H](CCC(N)=O)NC(=O)[C@H](CCCCN)NC(=O)[C@H](CCCNC(=N)N)NC(=O)[C@H](Cc1ccc(O)cc1)NC(=O)[C@H](CCCNC(=N)N)NC(=O)[C@H](CO)NC(=O)[C@H](Cc1ccc(O)cc1)NC(=O)[C@H](CO)NC(=O)[C@H](CC(=O)O)NC(=O)[C@H](C)NC(=O)[C@H](Cc1ccccc1)NC(=O)[C@@H](NC(=O)CNC(=O)[C@H](CC(=O)O)NC(=O)[C@@H](CO)NC(=O)[C@@H](N)Cc1c[nH]cn1)[C@@H](C)CC)C(=O)N[C@@H](C)C(=O)N[C@H](C(=O)N[C@@H](CCCCN)C(=O)N[C@@H](CCCCN)C(=O)N[C@@H](Cc1ccc(O)cc1)C(=O)N[C@@H](CC(C)C)C(=O)N[C@@H](C)C(=O)N[C@@H](C)C(=O)N[C@H](C(=O)N[C@@H](CC(C)C)C(=O)N[C@@H](CO[C@@H]1O[C@H](CO)[C@@H](O)[C@H](O)[C@H]1O)C(N)=O)C(C)C)C(C)C [CRA3003] | 93 | – | – | – | – | – | – | – | –
2 | CCC[C@H](NC(=O)[C@H](CCC(N)=O)NC(=O)[C@H](CCCCN)NC(=O)[C@H](CCCNC(=N)N)NC(=O)[C@H](Cc1ccc(O)cc1)NC(=O)[C@H](CCCNC(=N)N)NC(=O)[C@H](CO)NC(=O)[C@H](Cc1ccc(O)cc1)NC(=O)[C@H](CO)NC(=O)[C@H](CC(=O)O)NC(=O)[C@@H](NC(=O)[C@H](Cc1ccccc1)NC(=O)[C@@H](NC(=O)CNC(=O)[C@H](CC(=O)O)NC(=O)[C@@H](CO)NC(=O)[C@@H](N)Cc1c[nH]cn1)[C@@H](C)CC)[C@@H](C)O)C(=O)N[C@@H](C)C(=O)N[C@H](C(=O)N[C@@H](CCCCN)C(=O)N[C@@H](CCCCN)C(=O)N[C@@H](Cc1ccc(O)cc1)C(=O)N[C@@H](CC(C)C)C(=O)N[C@@H](C)C(=O)N[C@@H](C)C(=O)N[C@H](C(=O)N[C@@H](CO[C@@H]1O[C@H](CO)[C@@H](O)[C@H](O)[C@H]1O)C(N)=O)C(C)C)C(C)C [CRA3001] | 90 | 54.5 | 86 | 654 | 107 | 12.00 | 136.25 | 4.8 | 0.09
3 | CCC[C@H](NC(=O)[C@H](CCC(N)=O)NC(=O)[C@H](CCCCN)NC(=O)[C@H](CCCNC(=N)N)NC(=O)[C@H](Cc1ccc(O)cc1)NC(=O)[C@H](CCCNC(=N)N)NC(=O)[C@H](CO)NC(=O)[C@H](Cc1ccc(O)cc1)NC(=O)[C@H](CO)NC(=O)[C@H](CC(=O)O)NC(=O)[C@@H](NC(=O)[C@H](Cc1ccccc1)NC(=O)[C@@H](NC(=O)CNC(=O)[C@H](CC(=O)O)NC(=O)[C@@H](CO)NC(=O)[C@@H](N)Cc1c[nH]cn1)[C@@H](C)CC)[C@@H](C)O)C(=O)N[C@@H](C)C(=O)N[C@H](C(=O)N[C@@H](CCCCN)C(=O)N[C@@H](CCCCN)C(=O)N[C@@H](Cc1ccc(O)cc1)C(=O)N[C@@H](CC(C)C)C(=O)N[C@@H](C)C(=O)N[C@@H](C)C(=O)N[C@H](C(=O)N[C@@H](CC(C)C)C(=O)N[C@@H](CO[C@@H]1O[C@H](CO)[C@@H](O)[C@H](O)[C@H]1O)C(N)=O)C(C)C)C(C)C [CRA3000] | 90 | 25.5 | 85 | 241 | 104 | 9.45 | 185.38 | 1.3 | 0.05
